# Measurements as given in patent publication US12195771B2, “Combination chemotherapy for the treatment of cancer” (WISCONSIN ALUMNI RESEARCH FOUNDATION, priority 2017, dated 2025).
# Test system: human A549 lung cancer cells
# Assay: Assay of cell viability with two drugs (kinase inhibitor + ptRNase), A549
# Format: cell-based
# Details: two-drug combination with ptRNase
# Method: We measured cell viability with a tetrazolium dye-based assay for metabolic activity.
# We used the EC50 values obtained from single-drug treatment (Table 1) to design subsequent drug combination experiments. Two-drug combination experiments were performed using a 5×5 matrix to interrogate 25 concentration ratios per combination.
# The EC50 values obtained from single-drug cell viability assays were used to design subsequent drug combination experiments. Two-drug combination experiments were performed by using a 5×5 matrix in 96-well plates to interrogate 25 dosing pairs. Cells in complete growth medium were plated at 5,000 cells per well in a 96-well microplate, which was incubated for 24 h at 37° C. […] After 48 h, cell viability was evaluated as described above.
# The dose-effect curve for each drug was determined based on experimental observations and was compared to the effect afforded by the two-drug combination to derive a CI value. The CI values for all combinations were calculated using CalcuSyn 2.0 from Biosoft (Cambridge, UK). […] Each CI value was the mean of the results from 3 biological replicates.
smiles,measurement,value
C[C@@H](Oc1cc(-c2cnn(C3CCNCC3)c2)cnc1N)c1c(Cl)ccc(F)c1Cl [Crizetinib],Synergism with ptRNase?,No
